Molecular target: hCB1 receptor (Homo sapiens, UniProt P21554)
Assay: Test IV: CB1 functional assay ([35S]GTPγS binding)
Assay type: biochemical
Parameters: purchased Receptor Biology Inc RBhCB1 382200; host or cells: HEK293 cells, membrane preparation

Chains of the proteins cited; added tags and fusions are not shown.
UniProt P21554, whole entry: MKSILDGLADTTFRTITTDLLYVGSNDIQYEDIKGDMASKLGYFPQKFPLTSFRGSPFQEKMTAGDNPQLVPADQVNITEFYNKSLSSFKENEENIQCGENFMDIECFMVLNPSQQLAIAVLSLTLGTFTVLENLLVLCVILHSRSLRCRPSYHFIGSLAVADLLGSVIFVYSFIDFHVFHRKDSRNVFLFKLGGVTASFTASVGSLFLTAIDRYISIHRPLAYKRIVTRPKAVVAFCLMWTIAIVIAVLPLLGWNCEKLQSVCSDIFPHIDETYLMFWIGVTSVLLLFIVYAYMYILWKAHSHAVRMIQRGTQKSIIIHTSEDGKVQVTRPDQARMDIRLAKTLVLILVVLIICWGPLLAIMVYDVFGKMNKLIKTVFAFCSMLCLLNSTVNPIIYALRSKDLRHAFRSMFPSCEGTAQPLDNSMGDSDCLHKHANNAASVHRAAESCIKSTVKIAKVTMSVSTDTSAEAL

Work on `CCOC(=O)c1c(C)cc2nc(COC(=O)NCCO)n(-c3ccccc3S(=O)(=O)NC)c(=O)c2c1C` [Example 2, 2-(2-Hydroxy-ethylcarbamoyloxymethyl)-5,7-dimethyl-3-(2-methylsulfamoyl-phenyl)-4-oxo-3,4-dihydro-quinazoline-6-carboxylic acid ethyl ester] yielded an Emax of 117 ± 5%.

Source: patent US8552015B2, “Quinazolinone derivatives and their use as CB agonists” (Novartis AG, priority 2002, dated 2013)
